This note sets out measurements from PubChem BioAssay AID504411 (The Scripps Research Institute Molecular Screening Center, 2011).

Amino acid sequences for entries named in this document (tags omitted).
UniProt Q8NCG7, whole entry: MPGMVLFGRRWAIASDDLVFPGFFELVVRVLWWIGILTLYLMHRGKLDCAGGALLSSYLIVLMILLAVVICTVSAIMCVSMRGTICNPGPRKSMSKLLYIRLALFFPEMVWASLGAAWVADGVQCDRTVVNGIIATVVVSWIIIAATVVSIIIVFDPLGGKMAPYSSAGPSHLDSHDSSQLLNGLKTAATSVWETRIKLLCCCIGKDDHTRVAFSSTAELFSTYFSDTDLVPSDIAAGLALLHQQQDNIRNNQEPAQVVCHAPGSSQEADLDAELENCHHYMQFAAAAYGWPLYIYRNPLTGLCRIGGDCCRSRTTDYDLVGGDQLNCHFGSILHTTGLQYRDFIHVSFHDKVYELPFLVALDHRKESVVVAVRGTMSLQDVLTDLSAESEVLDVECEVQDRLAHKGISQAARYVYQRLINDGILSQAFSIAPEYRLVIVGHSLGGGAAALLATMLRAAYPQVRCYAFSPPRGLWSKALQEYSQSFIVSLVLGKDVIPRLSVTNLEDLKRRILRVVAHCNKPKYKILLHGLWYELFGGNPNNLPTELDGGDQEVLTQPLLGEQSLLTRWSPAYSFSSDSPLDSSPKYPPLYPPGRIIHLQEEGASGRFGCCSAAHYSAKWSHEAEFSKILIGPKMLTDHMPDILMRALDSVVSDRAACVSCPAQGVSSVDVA

Only a part is listed here, and it is no random draw. Some salts or complexes appear as unconnected parts, following the source record. Calls of active or inactive are those of the source. Cut-off read from the data, not from the text of the source: active = inhibition above about 34%; inactive = the rest.

The assay addresses Diacylglycerol lipase-beta (Homo sapiens) (UniProt Q8NCG7). Nature of the assay: DAGLB lipase inhibitors, primary screen, biochemical, fluorescence, HTS (AID 504411).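 Note: 0% = enzyme with vehicle and 100% = wells lacking enzyme.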 The following applies: HEK293T DAGLB membrane lysate, EnzChek fluorogenic substrate; at 5.17 µM; active compounds read high.
With `CCN(CC)CC(O)COC(=O)C(O)(c1ccccc1)C1CCCCC1` (configuration not stated), the inhibition – broadly, the drop in the measured response relative to a control, in per cent – is inactive: -0.07%.
With `COc1ccc(OP(C)(=O)Nc2ccc(Br)cc2)cc1` (configuration not stated), the inhibition is inactive: -1.17%.
As for `CP(=O)(Oc1ccccc1)N1CCOC1=O` (configuration not stated), the inhibition is inactive: -1.3%.
The same measure for `CCc1ccc(OP(C)(=O)Nc2cccnc2)cc1` (configuration not stated): inactive: -0.15%; for `COc1ccccc1OP(C)(=O)Nc1c(C)n(C)n(-c2ccccc2)c1=O` (configuration not stated): inactive: -1.11%; for `O=C(OCCCN1CCCC1)C(O)(c1ccccc1)C1CCCCC1` (configuration not stated): inactive: 2.62%.
The same measure for `CP(=O)(Nc1ccc(Cl)cc1)Oc1ccc(F)cc1` (configuration not stated): inactive: 0.07%; for `CC(C)(C)c1ccc(OP(C)(=O)O)cc1`: inactive: 2.02%; for `COc1ccccc1OP(C)(=O)Nc1ccccc1Br` (configuration not stated): inactive: -0.06%.
On to `CN(C)C(=O)c1c([N+](=O)[O-])cc([N+](=O)[O-])cc1[N+](=O)[O-]`, for which the inhibition is inactive: 2.1%.
Under `CP(=O)(OC12CC3CC(CC(C3)C1)C2)OC12CC3CC(CC(C3)C1)C2` stands inactive: -9.89%.
Regarding `CCOC(=O)c1ccc(NP(C)(=O)Oc2ccc(Cl)cc2)cc1` (configuration not stated), the inhibition was inactive: -0.14%.
Under `O=C1C(O)=C([N+](=O)[O-])C(=O)C(O)=C1[N+](=O)[O-]` stands inactive: -0.83%.
Regarding `Cc1cc(C)cc(OP(C)(=O)Nc2cccc(C(F)(F)F)c2)c1` (configuration not stated), the inhibition was inactive: -0.29%.
For `COc1ccc(OP(C)(=O)Nc2ccccc2Br)cc1` (configuration not stated), the inhibition was inactive: -0.16%.
The same measure for `COc1ccccc1OP(C)(=O)Nc1ccc(C)c(C)c1` (configuration not stated): inactive: -2.83%.
The same measure for `CP(=O)(OCCOc1ccccc1)OCCOc1ccccc1`: inactive: -1.23%; for `CCCCCCCCCCCCCCCC1C[N+](C)(C)CCOP(C)(=O)O1` (configuration not stated): inactive: 2.04%.
The same measure for `CP(=O)(Nc1ccc(Cl)cc1Cl)Oc1ccccc1` (configuration not stated): inactive: -1.08%.
With `COc1ccccc1OP(C)(=O)Nc1ccc(Br)cc1` (configuration not stated), the inhibition was inactive: -1.92%.
The same measure for `CN(C)CCOC(=O)C(O)(c1ccccc1)C1CCCC1` (configuration not stated): inactive: -1.99%; for `COc1ccc(OP(C)(=O)Nc2ccccn2)cc1` (configuration not stated): inactive: 0.55%.
As for `O=[N+]([O-])c1cc([N+](=O)[O-])c(Nc2ccccn2)c([N+](=O)[O-])c1`, the inhibition was inactive: 1.51%.
Regarding `Cc1c(NP(C)(=O)Oc2ccc(C(C)C)cc2)c(=O)n(-c2ccccc2)n1C` (configuration not stated), the inhibition was inactive: 2.63%.
Regarding `CCc1ccc(OP(C)(=O)O)cc1`, the inhibition was inactive: 1.82%.
With `CP(=O)(Nc1ccccn1)Oc1ccccc1` (configuration not stated), the inhibition is inactive: 1.71%.
Take `COc1ccccc1OP(C)(=O)Nc1ccc(C)cc1C` (configuration not stated): the inhibition is inactive: -2.95%.
Under `O=[N+]([O-])c1cc([N+](=O)[O-])c(Nc2ccc(Cl)cc2)c([N+](=O)[O-])c1` stands inactive: 12.6%.
Take `CC(C)c1ccc(OP(C)(=O)Nc2ccc(SC(F)(F)F)cc2)cc1` (configuration not stated): the inhibition is inactive: 0.02%.
Under `CP(=O)(Nc1ccccc1F)Oc1ccccc1` (configuration not stated) stands inactive: 1.36%; under `O=C(OCCN1CCN(CCOCc2ccccc2)CC1)C(O)(c1ccccc1)c1ccccc1`, inactive: -1.42%.
Under `O=C(OC1CN2CCC1CC2)c1ccc([N+](=O)[O-])cc1` (configuration not stated) stands inactive: -3.06%; under `COc1ccc2c(c1O)-c1c(O)c(OC)cc3c1[C@H](C2)[N+](C)(C)CC3.O=[N+]([O-])c1cc([N+](=O)[O-])c([O-])c([N+](=O)[O-])c1[O-]`, inactive: -4.77%.
The same measure for `COc1ccc(OP(C)(=O)Nc2ccc(SC(F)(F)F)cc2)cc1` (configuration not stated): inactive: -2.49%; for `CCOC(=O)c1ccc(NP(C)(=O)Oc2ccc(F)cc2)cc1` (configuration not stated): inactive: -0.2%.
Consider `CCN(CC)CCCOC(=O)C(O)(c1ccccc1)C1CCCCC1` (configuration not stated), for which the inhibition was inactive: 1.02%.
Consider `Cc1c([N+](=O)[O-])cc([N+](=O)[O-])c(Br)c1[N+](=O)[O-]`, for which the inhibition was inactive: 13.4%.
The same measure for `CCCCCOc1ccc(NP(C)(=O)Oc2ccc(Cl)cc2Cl)cc1` (configuration not stated): inactive: -3.48%; for `O=[N+]([O-])c1cc([N+](=O)[O-])c(OC2CCCCC2O)c([N+](=O)[O-])c1` (configuration not stated): inactive: 5.85%; for `CP(=O)(Nc1ccccc1)Oc1ccc(F)cc1` (configuration not stated): inactive: -1.92%.
Consider `COc1ccc(OP(C)(=O)Nc2cccc(Br)c2)cc1` (configuration not stated), for which the inhibition was inactive: -0.29%.
The same measure for `COc1ccc(NP(C)(=O)Oc2ccccc2OC)cc1` (configuration not stated): inactive: 1.42%; for `CN(C)CCOC(=O)C(O)(c1ccccc1)C1CCCCC1` (configuration not stated): inactive: -1.27%.
Under `Cc1cc(-c2cccc3ccccc23)c(C)cn1.O=[N+]([O-])c1cc([N+](=O)[O-])c(O)c([N+](=O)[O-])c1` stands inactive: 0.31%; under `O=[N+]([O-])c1cc([N+](=O)[O-])c(NCC2CCS(=O)(=O)C2)c([N+](=O)[O-])c1` (configuration not stated), inactive: 3.92%; under `O=[N+]([O-])c1ccc(OP2(=O)COCCO2)cc1` (configuration not stated), inactive: -0.71%.
Under `Cc1c(C(c2ccc3c(c2)OCO3)c2c(C)n(C)n(-c3ccccc3)c2=O)c(=O)n(-c2ccccc2)n1C.O=[N+]([O-])c1cc([N+](=O)[O-])c(O)c([N+](=O)[O-])c1` stands inactive: -3.21%; under `CP(=O)(Nc1ccc(SC(F)(F)F)cc1)Oc1ccc(F)cc1` (configuration not stated), inactive: -2.36%.
Take `CCOP(C)(=S)SCC(=O)NC(C)(CC)C(=O)O` (configuration not stated): the inhibition was inactive: -0.3%.
Under `CP(=O)(Nc1ccc2c(c1)OCCO2)Oc1ccccc1` (configuration not stated) stands inactive: 2.38%.
On to `Cc1ccccc1NP(C)(=O)Nc1ccccc1C`, for which the inhibition is inactive: -1.88%.
On to `O=[N+]([O-])c1cc([N+](=O)[O-])c(-n2nnc3ccccc32)c([N+](=O)[O-])c1`, for which the inhibition was inactive: 3.25%.
Regarding `O=[N+]([O-])c1cc([N+](=O)[O-])c(-c2cnn(-c3ccccc3)c2)c([N+](=O)[O-])c1`, the inhibition is inactive: -1.84%.
Consider `Cc1nc2ccc3ccccc3c2s1.O=[N+]([O-])c1cc([N+](=O)[O-])c(O)c([N+](=O)[O-])c1`, for which the inhibition is inactive: 2.67%.
Under `O=[N+]([O-])c1cc([N+](=O)[O-])c(Nc2nnnn2CCO)c([N+](=O)[O-])c1` stands inactive: 13.6%; under `CC1=C2N=C(C=C3N=C(C(C)=C4[N-][C@@](C)([C@@H]5N=C1[C@](C)(CCC(=O)NC[C@@H](C)OP(=O)([O-])O[C@H]1[C@@H](O)[C@@H](n6cnc7cc(C)c(C)cc76)O[C@@H]1CO)[C@H]5CC(N)=O)[C@@](C)(CC(N)=O)[C@@H]4CCC(N)=O)[C@@](C)(CC(N)=O)[C@@H]3CCC(N)=O)C(C)(C)[C@@H]2CCC(N)=O.[C-]#N.[Co+3]`, inactive: 2.91%.
The same measure for `CCOC(=O)C(CC)C1=NC(C)(C)Cc2ccccc21.O=[N+]([O-])c1cc([N+](=O)[O-])c(O)c([N+](=O)[O-])c1` (configuration not stated): inactive: 4.04%.
In the case of `CN1CCCCC1COC(=O)C1(O)c2ccccc2CCc2ccccc21` (configuration not stated), the inhibition was inactive: -1.66%.
Under `COc1ccccc1OP(C)(=O)Nc1c(C)cccc1C` (configuration not stated) stands inactive: -1.35%; under `CP(=O)(Nc1ccc(SC(F)(F)F)cc1)Oc1ccccc1` (configuration not stated), inactive: 0.27%.
With `CCCOc1ccc(NP(C)(=O)Oc2ccc(Cl)cc2)cc1` (configuration not stated), the inhibition was inactive: 4.61%.
As to `O=C(O)c1cccc(Nc2c([N+](=O)[O-])cc([N+](=O)[O-])cc2[N+](=O)[O-])c1`, the inhibition was inactive: 6.16%.
Under `CC1=NCCc2c1[nH]c1ccccc21.O=[N+]([O-])c1cc([N+](=O)[O-])c(O)c([N+](=O)[O-])c1` stands inactive: 2.13%.
Under `COc1ccccc1OP(C)(=O)Nc1cccc(Br)c1` (configuration not stated) stands inactive: 1.57%; under `Cc1cc(C)cc(OP(C)(=O)Nc2ccc(C)cc2C)c1` (configuration not stated), inactive: -3.6%.
The same measure for `CCOC(=O)c1ccc(NP(C)(=O)Oc2cc(C)cc(C)c2)cc1` (configuration not stated): inactive: -3.07%; for `CP(=O)(Nc1cccc(Br)c1)Oc1ccccc1` (configuration not stated): inactive: -1.96%; for `Cc1cc(C)cc(OP(C)(=O)Nc2ccccn2)c1` (configuration not stated): inactive: -2.19%.
As to `Cc1ccc(C)c(NP(C)(=O)Oc2ccccc2)c1` (configuration not stated), the inhibition was inactive: 3.26%.
Under `CCN(CC)CCCOC(=O)C(O)(c1ccccc1)c1ccccc1` stands inactive: 1.96%.
Regarding `O=[N+]([O-])c1cc([N+](=O)[O-])c(Nc2cccnc2)c([N+](=O)[O-])c1`, the inhibition was inactive: 6.98%.
For `CC(C)(C)c1ccc(OP(C)(=O)Nc2ccc(SC(F)(F)F)cc2)cc1` (configuration not stated), the inhibition was inactive: -1.41%.
The same measure for `Cc1cccc(C)c1OP(C)(N)=O` (configuration not stated): inactive: 1.24%; for `O=[N+]([O-])c1ccc2c(c1)C=Nc1ccccc1O2`: inactive: 0.36%.
Consider `CCOC(=O)c1ccc(NP(C)(=O)Oc2ccccc2)cc1` (configuration not stated), for which the inhibition was inactive: -5.13%.
Turning to `COc1ccccc1OP(C)(=O)Nc1ccc(C)cc1` (configuration not stated), the inhibition is inactive: -0.3%.
`Cc1ccc(NP(C)(=O)Oc2ccccc2)c(C)c1` (configuration not stated): the inhibition is inactive: -1.44%.
Under `COc1ccccc1OP(C)(=O)Nc1cc(Cl)ccc1C` (configuration not stated) stands inactive: -0.91%.
The same measure for `COc1ccc(OP(C)(=O)Nc2cccc(F)c2)cc1` (configuration not stated): inactive: -1.39%.
For the compound `Cc1cc(C)cc(OP(C)(N)=O)c1` (configuration not stated), the inhibition is inactive: 2.17%.
Under `CP(=S)(Nn1cnnc1)Oc1ccccc1` (configuration not stated) stands inactive: -1.37%.
With `COc1ccccc1OP(C)(=O)Nc1ccccc1` (configuration not stated), the inhibition was inactive: -0.76%.
`CP(=O)(Nc1ccccc1Br)Oc1ccccc1` (configuration not stated): the inhibition was inactive: -1.75%.
Consider `Cc1ccc(Nc2c([N+](=O)[O-])cc([N+](=O)[O-])cc2[N+](=O)[O-])cc1`, for which the inhibition is inactive: 13.8%.
The same measure for `Cc1cccc(C)c1OP(C)(=O)Nc1ccc(SC(F)(F)F)cc1` (configuration not stated): inactive: -1.55%.
Consider `CP(=O)(Oc1ccccc1)OC(c1ccccc1)C(F)(F)F` (configuration not stated), for which the inhibition was inactive: -1.49%.
The same measure for `CCc1ccc(OP(C)(=O)N2CCN(c3ccc([N+](=O)[O-])cc3)CC2)cc1` (configuration not stated): inactive: 0.94%; for `CP(=O)(NC(=O)Nc1ccccc1)Oc1ccccc1` (configuration not stated): inactive: -6.43%; for `Cc1cc(C)cc(OP(C)(=O)Nc2ccc(SC(F)(F)F)cc2)c1` (configuration not stated): inactive: -1.8%.
Turning to `CCOP(C)(=S)SCC(=O)NC(C)C(=O)O` (configuration not stated), the inhibition was inactive: 0.24%.
The same measure for `CCOC(=O)c1ccc(NP(C)(=O)Oc2ccc(OC)cc2)cc1` (configuration not stated): inactive: -1.85%; for `CP(=O)(Nc1ccccn1)Oc1ccc(Cl)cc1` (configuration not stated): inactive: -1.29%.
